For two molecules, Ki and IC50 results are on record in patent US8987312B2, “Alpha-keto heterocycles as FAAH inhibitors” (The Scripps Research Institute, priority 2008, dated 2015).

Protein sequences, listed by entry. Tags and fused reporters are not part of them. Residues count along the entry.
UniProt P97612, 30-579 limits assumed: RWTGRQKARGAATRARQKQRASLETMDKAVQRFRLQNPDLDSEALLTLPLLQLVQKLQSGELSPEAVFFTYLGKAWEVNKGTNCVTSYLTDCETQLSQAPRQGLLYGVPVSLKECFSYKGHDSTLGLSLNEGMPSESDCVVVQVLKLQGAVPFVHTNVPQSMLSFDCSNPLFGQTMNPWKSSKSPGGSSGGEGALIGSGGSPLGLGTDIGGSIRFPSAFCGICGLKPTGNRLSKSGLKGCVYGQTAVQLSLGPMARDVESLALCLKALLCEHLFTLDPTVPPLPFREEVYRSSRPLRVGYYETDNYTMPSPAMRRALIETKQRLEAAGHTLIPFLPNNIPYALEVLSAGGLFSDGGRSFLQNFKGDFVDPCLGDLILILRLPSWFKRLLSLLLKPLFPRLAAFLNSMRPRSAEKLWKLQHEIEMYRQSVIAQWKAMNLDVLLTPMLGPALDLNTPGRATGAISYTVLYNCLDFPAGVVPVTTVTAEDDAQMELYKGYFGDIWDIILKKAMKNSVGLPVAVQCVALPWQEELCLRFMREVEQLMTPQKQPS
UniProt Q8BLF1, whole entry: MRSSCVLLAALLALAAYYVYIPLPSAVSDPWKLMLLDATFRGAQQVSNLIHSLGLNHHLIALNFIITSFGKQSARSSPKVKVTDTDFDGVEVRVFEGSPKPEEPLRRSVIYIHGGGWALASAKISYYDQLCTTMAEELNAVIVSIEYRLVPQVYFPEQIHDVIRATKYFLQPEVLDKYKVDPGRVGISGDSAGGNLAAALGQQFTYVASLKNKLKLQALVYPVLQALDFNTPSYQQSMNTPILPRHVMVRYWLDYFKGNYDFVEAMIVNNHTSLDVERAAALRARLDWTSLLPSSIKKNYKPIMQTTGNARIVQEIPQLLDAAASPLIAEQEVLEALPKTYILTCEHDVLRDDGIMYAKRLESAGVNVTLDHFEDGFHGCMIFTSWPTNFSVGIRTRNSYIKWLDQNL
UniProt Q8VCT4, 19-565 limits assumed: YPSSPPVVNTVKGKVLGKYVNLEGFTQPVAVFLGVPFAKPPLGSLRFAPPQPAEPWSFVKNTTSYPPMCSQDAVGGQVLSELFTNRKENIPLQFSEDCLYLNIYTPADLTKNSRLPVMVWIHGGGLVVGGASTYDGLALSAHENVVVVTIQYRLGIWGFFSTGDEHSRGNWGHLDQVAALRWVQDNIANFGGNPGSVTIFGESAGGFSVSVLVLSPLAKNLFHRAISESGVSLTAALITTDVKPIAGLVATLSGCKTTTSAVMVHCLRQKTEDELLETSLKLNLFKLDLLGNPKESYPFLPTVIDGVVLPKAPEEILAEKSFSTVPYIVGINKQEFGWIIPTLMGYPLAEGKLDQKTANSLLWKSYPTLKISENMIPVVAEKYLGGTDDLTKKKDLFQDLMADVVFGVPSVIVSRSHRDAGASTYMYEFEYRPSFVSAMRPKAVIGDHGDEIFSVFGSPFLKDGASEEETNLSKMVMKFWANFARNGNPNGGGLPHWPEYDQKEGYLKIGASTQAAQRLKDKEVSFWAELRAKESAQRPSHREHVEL

Each structure is given as a SMILES string. pIC50, pKi: −log10 of the molar value.

What all share (type): biochemical
Experiment [1] deals with purified recombinant rat FAAH (Rattus norvegicus, UniProt P97612). The experiment is described as follows: FAAH inhibition enzyme assay (14C-oleamide hydrolysis, Dixon plot), rat enzyme.
The target in another experiment is KIAA1363 (Mus musculus, UniProt Q8BLF1). The experiment is described as follows: Activity based protein profiling (proteome-wide selectivity screening, FP-Rh), KIAA1363. The following applies: read-out: KIAA1363 IC50, Table 4.
In experiment [2] the target is triacylglycerol hydrolase (TGH) (Mus musculus, UniProt Q8VCT4). The experiment is described as follows: Activity based protein profiling (proteome-wide selectivity screening, FP-Rh), TGH. The following applies: read-out: TGH IC50, Table 4.

As to `O=C(CCc1ccc(-c2ccccc2)cc1)c1nnc(-c2ccccn2)o1`, the pKi in experiment [1] is 9.52. For `O=C(CCCCCCc1ccccc1)c1ncco1`, the pIC50 was 4.70 at KIAA1363 and 7.70 in experiment [2].

By pKi is commonly meant −log10 of the Ki, conventionally taken in molar units. One may read the pIC50 as the IC50 on a negative log10 scale, so that one unit is a factor of ten.
